# System: procollagen I
# Experiment: effect of a combination of low SN38 and 5FU doses on procollagen I release (ELISA)
# Format: cell-based, human
# Conditions: SN38 0.006 µg/ml alone (condition A), 48h; patient SSC2, SSC3 or H2
# Procedure: Dermal fibroblasts were obtained from clinically affected skin of systemic sclerosis (SSC) patients and from healthy donors (H). The fibroblasts were grown in DMEM medium containing 2mM of L-glutamine supplemented with 10% foetal bovine serum (FCS) and penicillin/streptomycin antibiotics. For the experiments, cells were starved 24h before the addition of irinotecan, SN38 or 5FU in DMEM 0-1% FCS. mRNA analysis
# Dermal fibroblasts were plated in DMEM 10% FCS supplemented with 20µg/mL of vitamin C in 96-well plates. 24h before the experiment, medium was switched to DMEM 0% FCS supplemented with 20µg/mL of vitamin C. Cells were treated for 48h with SN38 (0.006 µg/mL), 5FU (1 µg/mL) or a combination (SN38 0.006 µg/mL and 5FU 1 µg/mL) in DMEM 0% FCS supplemented with 20µg/mL of vitamin C. Supernatants were collected to evaluate the procollagen I release level by ELISA kit (ref MK101, supplier Takara) according to manufacter's instructions. Triplicates were done. The level of procollagen I release was presented as fold change compared with the procollagen I release by the same non-treated fibroblasts arbitrary fixed at 100%.
smiles,measurement,value
"CCc1c2c(nc3ccc(O)cc13)-c1cc3c(c(=O)n1C2)COC(=O)[C@]3(O)CC [SN38, 7-Ethyl-10-hydroxy-camptothecin]",procollagen I release,not observed

# From patent publication EP3300733A1, “SUBSTANCE SELECTED AMONG IRINOTECAN, AN IRINOTECAN ACTIVE METABOLITE, 5-FLUORO-URACILE, A PHARMACEUTICAL SALT THEREOF AND A MIXTURE THEREOF, FOR USE IN THE TREATMENT OF FIBROSIS” (Centre Hospitalier Universitaire de Bordeaux, priority 2016, dated 2018)
